# Membrane permeability of cyclic peptides

Values of Kelly et al. 2021, doi:10.1021/jacs.0c06115, as listed in CycPeptMPDB.

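Lipid, pH, incubation time, direction and concentration are not recorded in the data file. The list need not hold all peptides of the study. Entries at the database's floor value (log10 P of -10) are not listed.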

PAMPA measures passive passage through an artificial lipid membrane.
Permeability is given as log10 of P in cm/s; higher (less negative) is more permeable.

| SMILES | PAMPA (log10 cm/s) |
|---|---|
| CC(=O)N1CCC[C@@H]1C(=O)N(C)[C@H](CC(C)C)C(=O)N[C@@H]1C(=O)N(C)[C@H](CC(C)C)C(=O)N(C)[C@H](CC(C)C)C(=O)N[C@H](CC(C)C)C(=O)N(C)[C@H](C)C(=O)N[C@H](CC(C)C)C(=O)N2CCC[C@H]2C(=O)O[C@@H]1C | -5.30 |
| CC(=O)N1CCC[C@H]1C(=O)N(C)[C@@H](CC(C)C)C(=O)N[C@@H]1C(=O)N[C@@H](CC(C)C)C(=O)N(C)[C@@H](CC(C)C)C(=O)N[C@H](CC(C)C)C(=O)N[C@H](C)C(=O)N[C@@H](CC(C)C)C(=O)N2CCC[C@@H]2C(=O)O[C@@H]1C | -5.24 |
| CC(=O)N1CCC[C@@H]1C(=O)N(C)[C@H](CC(C)C)C(=O)N[C@@H]1C(=O)N[C@H](CC(C)C)C(=O)N[C@@H](CC(C)C)C(=O)N(C)[C@H](CC(C)C)C(=O)N[C@@H](C)C(=O)N[C@H](CC(C)C)C(=O)N2CCC[C@H]2C(=O)O[C@@H]1C | -5.81 |
| CC(=O)N1CCC[C@@H]1C(=O)N(C)[C@H](CC(C)C)C(=O)N[C@@H]1C(=O)N[C@@H](CC(C)C)C(=O)N(C)[C@@H](CC(C)C)C(=O)N[C@@H](CC(C)C)C(=O)N(C)[C@@H](C)C(=O)N[C@H](CC(C)C)C(=O)N2CCC[C@H]2C(=O)O[C@@H]1C | -6.32 |
| CC(=O)N1CCC[C@@H]1C(=O)N(C)[C@H](CC(C)C)C(=O)N[C@@H]1C(=O)N(C)[C@@H](CC(C)C)C(=O)N[C@@H](CC(C)C)C(=O)N(C)[C@@H](CC(C)C)C(=O)N(C)[C@@H](C)C(=O)N[C@@H](CC(C)C)C(=O)N2CCC[C@@H]2C(=O)O[C@@H]1C | -5.43 |
| CC(=O)N1CCC[C@H]1C(=O)N(C)[C@@H](CC(C)C)C(=O)N[C@@H]1C(=O)N(C)[C@@H](CC(C)C)C(=O)N(C)[C@@H](CC(C)C)C(=O)N[C@@H](CC(C)C)C(=O)N(C)[C@@H](C)C(=O)N[C@H](CC(C)C)C(=O)N2CCC[C@@H]2C(=O)O[C@@H]1C | -5.68 |
| CC(=O)N1CCC[C@H]1C(=O)N(C)[C@H](CC(C)C)C(=O)N[C@@H]1C(=O)N[C@H](CC(C)C)C(=O)N(C)[C@H](CC(C)C)C(=O)N(C)[C@@H](CC(C)C)C(=O)N(C)[C@@H](C)C(=O)N[C@@H](CC(C)C)C(=O)N2CCC[C@H]2C(=O)O[C@@H]1C | -5.14 |
| CC(=O)N1CCC[C@H]1C(=O)N(C)[C@@H](CC(C)C)C(=O)N[C@@H]1C(=O)N(C)[C@@H](CC(C)C)C(=O)N[C@@H](CC(C)C)C(=O)N(C)[C@H](CC(C)C)C(=O)N[C@@H](C)C(=O)N[C@@H](CC(C)C)C(=O)N2CCC[C@H]2C(=O)O[C@@H]1C | -5.39 |
| CC(=O)N[C@@H]1C(=O)N2CCC[C@H]2C(=O)N(C)[C@H](CC(C)C)C(=O)N[C@@H](CC(C)C)C(=O)N[C@H](CC(C)C)C(=O)N[C@@H](CC(C)C)C(=O)N(C)[C@H](C)C(=O)N[C@@H](CC(C)C)C(=O)N2CCC[C@@H]2C(=O)O[C@@H]1C | -6.75 |
| CC(=O)N1CCC[C@@H]1C(=O)N(C)[C@H](CC(C)C)C(=O)N[C@@H]1C(=O)N[C@H](CC(C)C)C(=O)N[C@H](CC(C)C)C(=O)N(C)[C@@H](CC(C)C)C(=O)N[C@@H](C)C(=O)N[C@H](CC(C)C)C(=O)N2CCC[C@H]2C(=O)O[C@@H]1C | -6.79 |
| CC(=O)N1CCC[C@@H]1C(=O)N(C)[C@@H](CC(C)C)C(=O)N[C@@H]1C(=O)N[C@@H](CC(C)C)C(=O)N[C@@H](CC(C)C)C(=O)N(C)[C@@H](CC(C)C)C(=O)N(C)[C@@H](C)C(=O)N[C@@H](CC(C)C)C(=O)N2CCC[C@H]2C(=O)O[C@@H]1C | -6.30 |
| CC(=O)N1CCC[C@H]1C(=O)N[C@@H]1C(=O)N(C)[C@H](CC(C)C)C(=O)N[C@H](CC(C)C)C(=O)N[C@@H](CC(C)C)C(=O)N[C@H](CC(C)C)C(=O)N(C)[C@H](C)C(=O)N[C@@H](CC(C)C)C(=O)N2CCC[C@@H]2C(=O)O[C@@H]1C | -6.13 |
| CC(=O)N[C@@H]1C(=O)N2CCC[C@H]2C(=O)N(C)[C@H](CC(C)C)C(=O)N[C@H](CC(C)C)C(=O)N[C@H](CC(C)C)C(=O)N(C)[C@@H](CC(C)C)C(=O)N(C)[C@H](C)C(=O)N[C@@H](CC(C)C)C(=O)N2CCC[C@@H]2C(=O)O[C@@H]1C | -5.65 |
| CC(=O)N1CCC[C@H]1C(=O)N(C)[C@@H](CC(C)C)C(=O)N[C@@H]1C(=O)N(C)[C@H](CC(C)C)C(=O)N(C)[C@H](CC(C)C)C(=O)N[C@H](CC(C)C)C(=O)N(C)[C@@H](C)C(=O)N[C@H](CC(C)C)C(=O)N2CCC[C@@H]2C(=O)O[C@@H]1C | -5.84 |
| CC(=O)N1CCC[C@H]1C(=O)N(C)[C@H](CC(C)C)C(=O)N[C@@H]1C(=O)N(C)[C@@H](CC(C)C)C(=O)N[C@H](CC(C)C)C(=O)N[C@H](CC(C)C)C(=O)N(C)[C@H](C)C(=O)N[C@H](CC(C)C)C(=O)N2CCC[C@@H]2C(=O)O[C@@H]1C | -6.14 |
| CC(=O)N1CCC[C@H]1C(=O)N(C)[C@H](CC(C)C)C(=O)N[C@@H]1C(=O)N[C@@H](CC(C)C)C(=O)N(C)[C@H](CC(C)C)C(=O)N[C@H](CC(C)C)C(=O)N(C)[C@H](C)C(=O)N[C@@H](CC(C)C)C(=O)N2CCC[C@@H]2C(=O)O[C@@H]1C | -5.48 |
| CC(=O)N1CCC[C@H]1C(=O)N(C)[C@@H](CC(C)C)C(=O)N[C@@H]1C(=O)N[C@H](CC(C)C)C(=O)N(C)[C@@H](CC(C)C)C(=O)N[C@@H](CC(C)C)C(=O)N(C)[C@@H](C)C(=O)N[C@H](CC(C)C)C(=O)N2CCC[C@H]2C(=O)O[C@@H]1C | -5.31 |
| CC(=O)N1CCC[C@H]1C(=O)N(C)[C@@H](CC(C)C)C(=O)N[C@@H]1C(=O)N(C)[C@@H](CC(C)C)C(=O)N[C@@H](CC(C)C)C(=O)N(C)[C@H](CC(C)C)C(=O)N(C)[C@@H](C)C(=O)N[C@@H](CC(C)C)C(=O)N2CCC[C@H]2C(=O)O[C@@H]1C | -5.27 |
| CC(=O)N1CCC[C@@H]1C(=O)N(C)[C@@H](CC(C)C)C(=O)N[C@@H]1C(=O)N[C@H](CC(C)C)C(=O)N[C@H](CC(C)C)C(=O)N[C@@H](CC(C)C)C(=O)N[C@@H](C)C(=O)N[C@@H](CC(C)C)C(=O)N2CCC[C@H]2C(=O)O[C@@H]1C | -6.53 |
| CC(=O)N1CCC[C@H]1C(=O)N(C)[C@@H](CC(C)C)C(=O)N[C@@H]1C(=O)N[C@H](CC(C)C)C(=O)N(C)[C@H](CC(C)C)C(=O)N(C)[C@@H](CC(C)C)C(=O)N(C)[C@@H](C)C(=O)N[C@H](CC(C)C)C(=O)N2CCC[C@@H]2C(=O)O[C@@H]1C | -5.93 |
| CC(=O)N1CCC[C@@H]1C(=O)N(C)[C@@H](CC(C)C)C(=O)N[C@@H]1C(=O)N[C@@H](CC(C)C)C(=O)N(C)[C@@H](CC(C)C)C(=O)N[C@H](CC(C)C)C(=O)N(C)[C@@H](C)C(=O)N[C@H](CC(C)C)C(=O)N2CCC[C@@H]2C(=O)O[C@@H]1C | -5.26 |
| CC(=O)N1CCC[C@@H]1C(=O)N(C)[C@@H](CC(C)C)C(=O)N[C@@H]1C(=O)N(C)[C@@H](CC(C)C)C(=O)N(C)[C@H](CC(C)C)C(=O)N(C)[C@H](CC(C)C)C(=O)N(C)[C@@H](C)C(=O)N[C@@H](CC(C)C)C(=O)N2CCC[C@H]2C(=O)O[C@@H]1C | -5.55 |

Excerpt, the opening 3 entries:

{"smiles": "CC(=O)N1CCC[C@@H]1C(=O)N(C)[C@H](CC(C)C)C(=O)N[C@@H]1C(=O)N(C)[C@H](CC(C)C)C(=O)N(C)[C@H](CC(C)C)C(=O)N[C@H](CC(C)C)C(=O)N(C)[C@H](C)C(=O)N[C@H](CC(C)C)C(=O)N2CCC[C@H]2C(=O)O[C@@H]1C", "PAMPA (log10 cm/s)": "-5.30"}
{"smiles": "CC(=O)N1CCC[C@H]1C(=O)N(C)[C@@H](CC(C)C)C(=O)N[C@@H]1C(=O)N[C@@H](CC(C)C)C(=O)N(C)[C@@H](CC(C)C)C(=O)N[C@H](CC(C)C)C(=O)N[C@H](C)C(=O)N[C@@H](CC(C)C)C(=O)N2CCC[C@@H]2C(=O)O[C@@H]1C", "PAMPA (log10 cm/s)": "-5.24"}
{"smiles": "CC(=O)N1CCC[C@@H]1C(=O)N(C)[C@H](CC(C)C)C(=O)N[C@@H]1C(=O)N[C@H](CC(C)C)C(=O)N[C@@H](CC(C)C)C(=O)N(C)[C@H](CC(C)C)C(=O)N[C@@H](C)C(=O)N[C@H](CC(C)C)C(=O)N2CCC[C@H]2C(=O)O[C@@H]1C", "PAMPA (log10 cm/s)": "-5.81"}